Target: vasopressin V1a receptor (UniProt P37288)
Assay: FRET or BRET

Amino acid sequences for entries named in this document (tags omitted).
UniProt P37288, whole entry: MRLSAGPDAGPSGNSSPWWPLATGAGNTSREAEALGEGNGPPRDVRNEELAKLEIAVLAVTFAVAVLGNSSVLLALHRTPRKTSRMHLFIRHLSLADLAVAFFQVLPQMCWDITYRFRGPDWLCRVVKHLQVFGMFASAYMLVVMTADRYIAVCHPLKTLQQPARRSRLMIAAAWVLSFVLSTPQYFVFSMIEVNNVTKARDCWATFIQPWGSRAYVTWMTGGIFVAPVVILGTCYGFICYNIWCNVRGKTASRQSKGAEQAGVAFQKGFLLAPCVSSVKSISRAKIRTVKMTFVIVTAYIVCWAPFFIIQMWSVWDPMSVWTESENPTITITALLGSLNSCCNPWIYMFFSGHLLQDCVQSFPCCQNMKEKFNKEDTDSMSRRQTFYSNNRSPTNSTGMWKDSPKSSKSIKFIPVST

IC50: 2.1 nM
Substance: vasopressin (peptide)
